In patent US6485970B1, “Immunointeractive antibody” (priority 1997, dated 2002):
“Also recorded” adds a separate entry of the source.

What was measured:
serum TABM = experiment: Competitive inhibition ELISA, patient serum TABM against plate bound BA-HSA (R28 detection); type: binding, human; conditions: patient serum 1/200 pre-incubated with competitor, 5000-312.5 per well
BA-TABM = experiment: Competitive inhibition ELISA, BA-TABM against plate bound BA-HSA; type: binding, human; conditions: competitor pre-incubated with BA-TABM
Procedure: FIG. 13 is a graphical representation of competitive inhibition ELISA between BA-TABM and various haptens. Purified BA-TABM was diluted and pre-mixed with various haptens. The mixture was put onto an ELISA plate coated with the hapten BA-HSA and incubated. The amount of TABM binding as determined using the mouse monoclonal anti-human TABM antibody (MG3C9-1A12). [drawing 12]
FIG. 14 is a graphical representation showing inhibition ELISA between BA-TABM and various chemicals. Purified BA-TABM was diluted and pre-mixed with various chemicals. The mixture was put onto an ELISA plate coated with the hapten BA-HSA and incubated. The amount of TABM binding was determined using the mouse monoclonal anti-human TABM antibody (MG3C9-1A12). [drawing 13]
To determined the antigen specific reactivity of BA-TABM toward BA-HSA and other haptens, a competitive ELISA was used. The ELISA plate was coated with BA-HSA (250 ng/well) in carbonate buffer overnight at 4° C. The plate was washed and blocked with 1% w/v HSA in PBS for 90 minutes at 37° C. Serum from the patient with high levels of TABM to BA-HSA was used at a dilution of 1/400, in PBS. The competing antigens or haptens were serially diluted (½) in the diluted serum to give a range equivalent to 5000-312.5 ng per well. […]

BA-HSA: para-amino benzoic acid conjugated to human serum albumin
inhibition of serum TABM binding to BA-HSA on the well (serum TABM): inhibit
inhibition of BA-TABM binding to plate bound BA-HSA (BA-TABM): inhibited; also recorded: inhibition

Form-HSA: Formaldehyde conjugated human serum albumin
inhibition of serum TABM binding to BA-HSA on the well (serum TABM): No inhibition
inhibition of BA-TABM binding to plate bound BA-HSA (BA-TABM): Weaker inhibition

HSA: Human serum albumin
inhibition of serum TABM binding to BA-HSA on the well (serum TABM): No inhibition
